In the assay the target is TBK1 (Homo sapiens (Human), UniProt Q9UHD2). The experiment in a line: TBK1 low ATP kinase assay (in vitro assay 1). Format: biochemical. The following applies: read-out: TBK1 low ATP kinase assay IC50.

The chains behind the UniProt entries cited, without tags or fusion partners.
UniProt Q9UHD2, whole entry: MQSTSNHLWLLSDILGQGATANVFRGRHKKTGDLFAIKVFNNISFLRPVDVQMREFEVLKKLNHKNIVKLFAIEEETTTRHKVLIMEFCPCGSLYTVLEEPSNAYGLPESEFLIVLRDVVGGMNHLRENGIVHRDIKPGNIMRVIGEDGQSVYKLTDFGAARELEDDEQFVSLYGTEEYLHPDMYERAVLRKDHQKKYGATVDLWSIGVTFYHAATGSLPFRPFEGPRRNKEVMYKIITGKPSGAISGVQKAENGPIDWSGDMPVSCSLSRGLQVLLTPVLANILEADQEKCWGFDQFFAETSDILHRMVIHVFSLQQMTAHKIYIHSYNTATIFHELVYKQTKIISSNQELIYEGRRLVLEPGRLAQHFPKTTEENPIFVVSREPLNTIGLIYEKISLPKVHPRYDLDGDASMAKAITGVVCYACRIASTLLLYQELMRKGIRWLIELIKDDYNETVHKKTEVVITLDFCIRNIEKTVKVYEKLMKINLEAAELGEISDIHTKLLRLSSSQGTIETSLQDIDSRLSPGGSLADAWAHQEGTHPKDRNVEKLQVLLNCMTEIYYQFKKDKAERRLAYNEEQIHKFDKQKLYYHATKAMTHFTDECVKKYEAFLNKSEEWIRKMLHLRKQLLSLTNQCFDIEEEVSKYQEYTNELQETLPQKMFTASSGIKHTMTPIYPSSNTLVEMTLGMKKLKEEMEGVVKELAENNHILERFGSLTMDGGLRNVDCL

What is called IC50 is the point on the concentration scale where inhibition reaches its midpoint. Take `CN(C)c1nccnc1-c1ccc2nc(Nc3cc(CN4CCN(C(=O)OC(C)(C)C)CC4)ccn3)[nH]c2c1`: the IC50 is 1530 nM.

(Values after US10894784B2, “Heteroarylbenzimidazole compounds” (BAYER PHARMA AKTIENGESELLSCHAFT, priority 2015, dated 2021).)
